Experimental data published in PMC2841503.
pKd: −log10 of the molar value.

Columns and labels:
[1] = biological target: human pol ι UBM2 V695A (human); assay: ITC
[2] = biological target: human pol ι UBM2 L699A (human); assay: ITC

pKd [1]: 3.53 | pKd [2]: 3.73
Substance: human ubiquitin (from UniProt P0CG47 1-76) (natural protein)
